Assay results published in PubChem BioAssay (NCI).
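Test compounds were applied to cells in 96-well plates for 48 hours at 5 doses. Here, GI50 denotes the concentration required for 50% inhibition of growth. TGI is the concentration that stops growth completely.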

How the values were obtained:
Experiment in all cases: inhibition of tumour cell growth, NCI panel, 48 h
[1] = test system: 786-0 renal
[2] = test system: A498 renal
[3] = test system: A549 NSCLC
[4] = test system: ACHN renal
[5] = test system: BT-549 breast
[6] = test system: CAKI-1 renal
[7] = test system: CCRF-CEM leukemia
[8] = test system: COLO 205 colon
[9] = test system: DU-145 prostate
[10] = test system: EKVX NSCLC
[11] = test system: HCC-2998 colon
[12] = test system: HCT-116 colon
[13] = test system: HCT-15 colon
[14] = test system: HL-60(TB) leukemia
[15] = test system: HOP-62 NSCLC
[16] = test system: HOP-92 NSCLC
[17] = test system: HS 578T breast
[18] = test system: HT29 colon
[19] = test system: IGROV1 ovarian
[20] = test system: K-562 leukemia
[21] = test system: KM12 colon
[22] = test system: LOX IMVI melanoma
[23] = test system: M14 melanoma
[24] = test system: MALME-3M melanoma
[25] = test system: MCF7 breast
[26] = test system: MDA-MB-231 breast
[27] = test system: MDA-MB-435
[28] = test system: MDA-N
[29] = test system: MOLT-4 leukemia
[30] = test system: NCI-H226 lung
[31] = test system: NCI-H23 lung
[32] = test system: NCI-H322M lung
[33] = test system: NCI-H460 lung
[34] = test system: NCI-H522 lung
[35] = test system: NCI/ADR-RES ovarian
[36] = test system: OVCAR-3 ovarian
[37] = test system: OVCAR-4 ovarian
[38] = test system: OVCAR-5 ovarian
[39] = test system: OVCAR-8 ovarian
[40] = test system: PC-3 prostate
[41] = test system: RXF 393 renal
[42] = test system: SF-268 CNS
[43] = test system: SF-295 CNS
[44] = test system: SF-539 CNS
[45] = test system: SK-MEL-2 melanoma
[46] = test system: SK-MEL-28 melanoma
[47] = test system: SK-MEL-5 melanoma
[48] = test system: SK-OV-3 ovarian
[49] = test system: SN12C renal
[50] = test system: SNB-19 CNS
[51] = test system: SNB-75 CNS
[52] = test system: SR leukemia
[53] = test system: SW-620 colon
[54] = test system: TK-10 renal
[55] = test system: U251 CNS
[56] = test system: UACC-257 melanoma
[57] = test system: UACC-62 melanoma
[58] = test system: UO-31 renal

## O=[N+]([O-])c1ccc2c(c1)/C(=N/N=C1/c3cc([N+](=O)[O-])ccc3-c3c1cc([N+](=O)[O-])cc3[N+](=O)[O-])c1cc([N+](=O)[O-])cc([N+](=O)[O-])c1-2
[1]
  GI50: 2.58 µM
  TGI: 6.6 µM
[2]
  GI50: 7.66 µM
  TGI: 20.5 µM
[3]
  GI50: 6.46 µM
  TGI: 27.6 µM
[4]
  GI50: 5.52 µM
  TGI: 63.8 µM
[5]
  GI50: 3.4 µM
  TGI: 16.6 µM
[6]
  GI50: 2.62 µM
  TGI: 7.68 µM
[7]
  GI50: 2.1 µM
  TGI: 5 µM
[8]
  GI50: 5.13 µM
  TGI: 16.3 µM
[9]
  GI50: 2.73 µM
  TGI: 11.2 µM
[10]
  GI50: 4.26 µM
  TGI: 21.3 µM
[11]
  GI50: 14.7 µM
  TGI: 28.3 µM
[12]
  GI50: 4.49 µM
  TGI: 19.1 µM
[13]
  GI50: 5.63 µM
  TGI: 41.3 µM
[14]
  GI50: 4.67 µM
  TGI: 7.86 µM
[15]
  GI50: 3 µM
  TGI: 8.04 µM
[16]
  GI50: 13.3 µM
  TGI: 40.2 µM
[17]
  GI50: 12.2 µM
  TGI: 72.8 µM
[18]
  GI50: 20 µM
  TGI: 53.8 µM
[19]
  GI50: 5.04 µM
  TGI: 20.4 µM
[20]
  GI50: 17.6 µM
  TGI: 41.9 µM
[21]
  GI50: 3.28 µM
  TGI: 11.3 µM
[22]
  GI50: 12.9 µM
  TGI: 30 µM
[23]
  GI50: 10.7 µM
  TGI: 24.9 µM
[24]
  GI50: 6.55 µM
  TGI: 19 µM
[25]
  GI50: 1.35 µM
  TGI: 10.7 µM
[26]
  GI50: 7.43 µM
  TGI: 23 µM
[27]
  GI50: 3.27 µM
  TGI: 9.27 µM
[28]
  GI50: 4.58 µM
  TGI: 19.3 µM
[29]
  GI50: 2.01 µM
  TGI: 4.83 µM
[30]
  GI50: 7.75 µM
  TGI: 25.1 µM
[31]
  GI50: 4.37 µM
  TGI: 19.8 µM
[32]
  GI50: 3.95 µM
  TGI: 21.4 µM
[33]
  GI50: 3.72 µM
  TGI: 20.9 µM
[34]
  GI50: 5.27 µM
  TGI: 19.3 µM
[35]
  GI50: 5.8 µM
  TGI: 34.5 µM
[36]
  GI50: 2.04 µM
  TGI: 4.25 µM
[37]
  GI50: 9.23 µM
  TGI: 28.2 µM
[38]
  GI50: 4.36 µM
  TGI: 18.3 µM
[39]
  GI50: 4.85 µM
  TGI: 34.1 µM
[40]
  GI50: 4.14 µM
  TGI: 22.3 µM
[41]
  GI50: 1.72 µM
  TGI: 16.8 µM
[42]
  GI50: 1.62 µM
  TGI: 9.42 µM
[43]
  GI50: 23.5 µM
  TGI: 47.1 µM
[44]
  GI50: 3.1 µM
  TGI: 8.59 µM
[45]
  GI50: 5.89 µM
  TGI: 20.8 µM
[46]
  GI50: 12.3 µM
  TGI: 36 µM
[47]
  GI50: 3.43 µM
  TGI: 14.3 µM
[48]
  GI50: 4.93 µM
  TGI: 19.6 µM
[49]
  GI50: 8.85 µM
  TGI: 22.8 µM
[50]
  GI50: 5.04 µM
  TGI: 23.9 µM
[51]
  GI50: 5.13 µM
  TGI: 22 µM
[52]
  GI50: 2.29 µM
  TGI: 6.74 µM
[53]
  GI50: 11 µM
  TGI: 96.6 µM
[54]
  GI50: 3.67 µM
  TGI: 14.1 µM
[55]
  GI50: 4.34 µM
  TGI: 16.8 µM
[56]
  GI50: 11.2 µM
  TGI: 32.4 µM
[57]
  GI50: 9.39 µM
  TGI: 35.1 µM
[58]
  GI50: 3.82 µM
  TGI: 13.7 µM
